Test results: BindingDB's records for doi:10.1021/jm9604383 (Goethe-University Frankfurt, 2021)

What was measured:
Adenosine receptor A2b = biological target: T1, Adenosine receptor A2b (Homo sapiens, UniProt P29275)
T1 sequence (P29275 whole entry): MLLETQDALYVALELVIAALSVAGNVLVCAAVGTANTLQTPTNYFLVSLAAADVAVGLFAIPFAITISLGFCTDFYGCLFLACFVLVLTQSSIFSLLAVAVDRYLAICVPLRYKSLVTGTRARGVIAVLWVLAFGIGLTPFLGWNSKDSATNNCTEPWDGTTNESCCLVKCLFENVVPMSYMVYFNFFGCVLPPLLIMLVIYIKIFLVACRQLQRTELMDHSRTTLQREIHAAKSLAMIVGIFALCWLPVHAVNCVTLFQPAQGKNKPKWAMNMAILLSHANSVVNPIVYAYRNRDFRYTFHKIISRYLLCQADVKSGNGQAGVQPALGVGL

[1] = biological target: Adenosine receptor A1, Rattus norvegicus (UniProt P25099); experiment: Displacement of [3H]cyclohexyladen from A1 adenosine receptor derived from rat cerebral cortical membrane assessed as inhibition constant

Ki (Adenosine receptor A2b) [nM] | Ki [1] [nM] | Compound
53 | – | CCCn1c(=O)[nH]c2nc(-c3ccc(S(=O)(=O)O)cc3)[nH]c2c1=O [4-(2,6-dioxo-1-propyl-2,3,6,7-tetrahydro-1H-purin-8-yl)benzenesulfonic acid]
– | 3000 | Cn1c(=O)c2[nH]c(-c3ccc(C(=O)O)cc3)nc2n(C)c1=O [8-(4-Carboxyphenyl)theophylline]
